Antibody variant affinities, Ab-95 light chain, assay 2

All variants were tested on one target, the spike HR2 peptide PDVDLGDISGINAS (SARS-CoV-2).

Ab-95 is the parent antibody, in scFv form: VH, then a 15-residue (Gly4Ser)3 linker, then VL. The heavy chain is unchanged in all variants.
VH: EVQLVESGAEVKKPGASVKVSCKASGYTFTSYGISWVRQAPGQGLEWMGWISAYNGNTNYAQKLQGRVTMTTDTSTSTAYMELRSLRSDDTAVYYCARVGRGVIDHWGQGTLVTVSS
VL: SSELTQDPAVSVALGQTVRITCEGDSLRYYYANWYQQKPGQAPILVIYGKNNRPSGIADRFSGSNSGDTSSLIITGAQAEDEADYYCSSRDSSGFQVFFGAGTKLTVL

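In library AAYL52, one, two or three CDR residues were substituted; doubles and triples were drawn at random. The scFvs were displayed on barcoded MATa yeast, the peptide on MATalpha yeast. Binding brings cells together so that they mate, and sequencing counts the barcode pairs among the diploids. Scores were corrected for input abundance and mapped to Kd with protein pairs of known affinity run in the same pool. Each pool was mated in three replicate cultures.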

Each variant is given by its three light chain CDRs, as the data file delimits them; those of the parent are EGDSLRYYYAN, GKNNRPS, SSRDSSGFQVF.
All variants listed here change E23 of the VL, counted from its first residue.
The Kd shown is the geometric mean over detected replicates; a lower Kd is a better binder.
"not detected" marks a missing value. The strain was present, yet no cells mated with the target were sequenced in any replicate, which points to weak or no binding.
In this assay the parent's reference entry averaged 200 nM; its copy inside this library read 180 nM.

CDR-L1	CDR-L2	CDR-L3	Kd	seen in
GGRSLRYYYAN	GKNNRPS	SGRDSSGFQVF	290 nM	3/3
TGDSLRIYYAN	GKNNRRS	SSRDSSGFQVF	5.0 µM	2/3
CGDSLRCYYAN	GKNNRPS	SSRDSSGYQVF	250 nM	3/3
NGDSLRYYYAR	GKNNLPS	SSRDSSGFQVF	not detected	0/3
DGDSLRYYYAN	GKNNRPS	ASRHSSGFQVF	8.6 µM	3/3
PGDSLRYDYAN	GKNNRPS	SSRDSSGFMVF	not detected	0/3
HGDSLRYYYAN	GKNMRPS	CSRDSSGFQVF	160 nM	3/3
HGDSLRYYYAN	GNNNRPS	RSRDSSGFQVF	3.2 µM	1/3
AGDSLRYKYAN	GKNNRPM	SSRDSSGFQVF	19 nM	3/3
RGDSLRYNYAN	GKMNRPS	SSRDSSGFQVF	3.0 nM	3/3
RGDSLLYYYAN	GKNNLPS	SSRDSSGFQVF	220 nM	3/3
SGDSRRYYYAN	GKNNRPS	SSRDSSGFIVF	6.4 µM	3/3
RGDSLRYYYAN	GKNNRPS	SSRDSSGFAVC	1.9 µM	3/3
VGDSLMYEYAN	GKNNRPS	SSRDSSGFQVF	5.9 nM	3/3
MGDSLRYYYAN	GKNNRPS	SSRDTSGFQVF	740 nM	3/3
QGDSLRYYYAR	GKNNRPS	SSRDSSDFQVF	140 µM	1/3
DGDSLRYYEAN	GKINRPS	SSRDSSGFQVF	1.8 µM	3/3
IGDSLRYYYAF	GKNNRPS	WSRDSSGFQVF	110 µM	1/3
GGDSLRYYYAN	GKMNNPS	SSRDSSGFQVF	17 µM	1/3
HGDSLRIYYAN	GKNNRPS	SSRDSSCFQVF	1.5 µM	2/3
PGDSLICYYAN	GKNNRPS	SSRDSSGFQVF	9.2 µM	2/3
GGDILRYYYAN	GKNNRPS	SSRDTSGFQVF	3.1 µM	3/3
HGDLLRYYYAN	GKNYRPS	SSRDSSGFQVF	44 µM	2/3
IGDKLRYYYAN	KKNNRPS	SSRDSSGFQVF	12 µM	2/3
AGDSLRYYYAA	GKNNRPS	SSADSSGFQVF	440 µM	1/3
VGDSLRYYYMN	GKNNEPS	SSRDSSGFQVF	not detected	0/3
KGDSLRYKYAN	GKNNRPR	SSRDSSGFQVF	1.4 µM	3/3
DGDSLRGYYAN	GNNNRPS	SSRDSSGFQVF	11 nM	3/3
NGDYLRCYYAN	GKNNRPS	SSRDSSGFQVF	350 µM	1/3
NGDSLRYYYAN	GKNNRPS	SIADSSGFQVF	720 nM	3/3
TGDSLRAYYAN	GKNNRPS	SSRDQSGFQVF	24 nM	3/3
WGDSLRYYYAM	GKNNRPS	MSRDSSGFQVF	130 nM	3/3
QGDSLRYYYAK	GKNNRPS	SYRDSSGFQVF	1.5 µM	2/3
HGDSQRYYYAN	GKNNRPS	SSRDSSGFQVF	92 nM	3/3
DGDMLRYYYAN	GKNNRPS	SSRDSSGFQVF	3.0 µM	3/3
MGDSLRYYYAN	GKNNRPS	SSRDDSGFCVF	240 nM	1/3
GGDSLRYYYAN	GKNNRPC	SSRDSSSFQVF	14 µM	1/3
PGDTLRYYYAN	GKNNRPS	SDRDSSGFQVF	270 µM	1/3
YGASLRYYYAN	GKNNRPS	SSRDSSGNQVF	1.3 µM	3/3
PGDSLRNTYAN	GKNNRPS	SSRDSSGFQVF	33 nM	3/3
DGDNLRYYYAQ	GKNNRPS	SSRDSSGFQVF	26 µM	2/3
YGDSLRYYYAN	GKNNRPS	SSRDSSGTQAF	1.8 µM	3/3
RGDSLRYYYEN	GKNNRPS	SFRDSSGFQVF	not detected	0/3
CGDSLRSYLAN	GKNNRPS	SSRDSSGFQVF	180 nM	3/3
FGDSLRYYFAN	GKNNRPS	SSRDSNGFQVF	2.4 µM	3/3
SGDSLRYYYAN	GRNNRAS	SSRDSSGFQVF	120 nM	3/3
LGDSLRYWYAN	GKNNRSS	SSRDSSGFQVF	1.9 µM	3/3
YGDSLRYYYAN	GKNNRPS	CSADSSGFQVF	570 nM	3/3
PGDSLRYYYAN	GKNNRPS	SSRDSSGFQMF	not detected	0/3
HGDSLRYYYTN	GKNNRPS	SSRDSSGFSVF	190 nM	3/3
AGDSLRYYYAN	GKRNRPS	HSRDSSGFQVF	7.1 µM	3/3
AGDSLRYFYAN	GKNNRPS	SSRDSAGFQVF	280 nM	3/3
DRDSLRYYYAN	GKNNRPK	SSRDSSGFQVF	440 nM	3/3
DGDSLRYYYAN	GKNNGPS	SSYDSSGFQVF	80 µM	2/3
PGDSLRYYYAN	GKNNRPS	TSRDSSGFYVF	36 µM	3/3
GGGSLRYYYMN	GKNNRPS	SSRDSSGFQVF	88 nM	3/3
GGDSLRYYYAN	GQNNRPS	SSRDSSGFQVF	30 nM	3/3
PGDSLRYYYAN	GKNNRPS	SSTDSSGFKVF	not detected	0/3
GTDSLRYSYAN	GKNNRPS	SSRDSSGFQVF	77 nM	3/3
VGDSLRYYYAN	GKNNRPS	SSRKSSDFQVF	140 nM	3/3
PGDSLRYYYAN	GKNNRPS	SARDSSGGQVF	230 nM	3/3
IGDSLRYYYAN	GKNNRFS	QSRDSSGFQVF	480 nM	3/3

The 7 strongest on average among those seen in every replicate, once more:

CDR-L1,CDR-L2,CDR-L3,Kd,seen in
RGDSLRYNYAN,GKMNRPS,SSRDSSGFQVF,3.0 nM,3/3
VGDSLMYEYAN,GKNNRPS,SSRDSSGFQVF,5.9 nM,3/3
DGDSLRGYYAN,GNNNRPS,SSRDSSGFQVF,11 nM,3/3
AGDSLRYKYAN,GKNNRPM,SSRDSSGFQVF,19 nM,3/3
TGDSLRAYYAN,GKNNRPS,SSRDQSGFQVF,24 nM,3/3
GGDSLRYYYAN,GQNNRPS,SSRDSSGFQVF,30 nM,3/3
PGDSLRNTYAN,GKNNRPS,SSRDSSGFQVF,33 nM,3/3

Background: pairings of library AAYL52 with three empty control strains gave a value in 28% of cases (median 8.2 µM, 5th percentile 800 nM). Values in that range, when seen in few replicates, are hard to tell from nonspecific mating.

Data: MIT Lincoln Laboratory AlphaSeq set, Engelhart et al. 2022, doi:10.1038/s41597-022-01779-4, as distributed in FLAb.